Tested on: phosphorothioate oligonucleotide (ISIS-2302)
Experiment: Desulfurization of phosphorothioate oligonucleotide in mono-phasic system with oil-soluble antioxidants (SAX chromatography)
Type: physicochemical
Conditions: 5 mg additive; 0.5 g PEG-40-monostearate, 1.5 ml phosphate buffer pH 7.0, 1.5 mg ISIS-2302; 65° C. 20 hours; no antioxidants 51.0
Description: Polyethyleneglycol-40-monostearate (0.5 g), a water-soluble excipient which forms peroxides in the absence of antioxidants, was heated at 65° C. for 20 hours with 1.5 ml phosphate buffer, pH 7.0 and 1.5 mg phosphorothioate oligonucleotide (ISIS-2302) in the absence or presence of various oil-soluble antioxidants. Oligonucleotides were isolated by ethanol precipitation and phosphorothioate content was determined by strong anion exchange (SAX) chromatography.

Full PS content (area-% SAX): 89.4 area-% SAX
Compound: Cc1ccc(C(C)(C)C)c(O)c1 [2-t-butyl-5-methylphenol]

Source: patent US20050208528A1, “Enhancement of the stability of oligonucleotides comprising phosphorothioate linkages by addition of water-soluble antioxidants” (ISIS Pharmaceuticals, Inc., priority 2001, published 2005)
